Only a part is listed here, and it is no random draw. Some tests of the compounds listed are not included; inactive here does not mean inactive elsewhere. Active and inactive are the calls of the source.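 The calls were made as follows: active = lowest replicate activation of at least 40%, so every replicate reaches that level; inactive = the rest.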
assay: GLuc luminescence reporter in INS-1E cells, primary screen for activators of glucose-dependent secretion of insulin (AID 743287); conditions: INS-1E GLuc reporter insulin secretion, 2-3 h, at 16.6 µM, stronger effect = higher value;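 also: 0% = median of neutral control wells and 100% = median of IBMX positive control wells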

Structure (SMILES) | activation
Cc1ccc(C(=O)NCC2(N3CCCCC3)CCCCC2)cc1 | inactive: -6.59%
COc1cc(SC)ccc1C(=O)NCC1(N(C)C)CCCCC1 | inactive: 14.5%
CCN(CC)CC(C)C(C)OC(=O)C(O)(c1ccccc1)c1ccccc1 (configuration not stated) | inactive: 16.3%
CC(C)N1C(=O)CC2(CCN(CCOC(=O)C(O)(c3ccccc3)c3ccccc3)CC2)C1=O | inactive: -6.17%
CN1[C@@H]2CC[C@H]1CC(OC(=O)C(O)(c1ccccc1)c1ccccc1)C2 (some centres not stated) | inactive: 8.12%
O=C(NCC1(N2CCCCC2)CCCCC1)c1cc([N+](=O)[O-])ccc1Cl | inactive: -3.77%
COc1ccc(C(=O)NCC2(N(C)C)CCCCC2)cc1 | inactive: 0.66%
O=C(NCC1(N2CCCCC2)CCCCC1)c1cccc(Br)c1 | inactive: 9.96%
Cc1cc(C(=O)NCC2(N3CCCCC3)CCCCC2)ccc1[N+](=O)[O-] | inactive: 6.16%
CCN1CCCC(OC(=O)C2(O)c3ccccc3C=Cc3ccccc32)C1 (configuration not stated) | inactive: -4.53%
O=C(NCC1(N2CCCCC2)CCCCC1)c1cc(F)c(F)cc1Cl | inactive: -6.62%
C=CCN1CCN(CCOC(=O)C(O)(c2ccccc2)c2ccccc2)CC1 | inactive: 1.43%
CN(C)c1ccc(C(=O)NCC2(N(C)C)CCCCC2)cc1 | inactive: 8.34%
Cc1ccccc1C(=O)NCC1(N2CCCCC2)CCCCC1 | inactive: 23%
O=C(NCC1(N2CCCCC2)CCCCC1)c1cccc(Cl)c1 | inactive: -8.53%
COc1ccc(Cl)cc1C(=O)NCC1(N(C)C)CCCCC1 | inactive: -21.9%
COc1cccc(C(=O)NCC2(N3CCCCC3)CCCCC2)c1 | inactive: 4.8%
COc1cc(C(=O)NCC2(N(C)C)CCCCC2)c([N+](=O)[O-])cc1OC | inactive: -18.2%
CN(C)C1(CNC(=O)c2ccc(Br)cc2)CCCCC1 | inactive: 9.77%
O=C(OCCN1CCCC1)C(O)(c1ccccc1)c1ccccc1 | inactive: 0.87%
CC(C)Oc1ccc(C(=O)NCC2(N(C)C)CCCCC2)cc1 | inactive: -8.08%
COc1ccc(Br)c(C(=O)NCC2(N3CCCCC3)CCCCC2)c1 | inactive: -9.92%
